Test results from patent publication US7432303B2, “Chalcone and its analogs as agents for the inhibition of angiogenesis and related disease states” (James and Emory University, priority 1999, dated 2008).

Test system: SVR cells
Assay: SVR cell assay: cell numbers counted at 48 hours, percent inhibition versus control
Assay type: cell-based, murine
Conditions: for Percent Inhibition at a Specified Density (μg/ml): 1: 1 μg/ml, 10,000 SVR cells in 24 well dish; for Percent Inhibition at a Specified Density (μg/ml): 3: 3 μg/ml, 10,000 SVR cells in 24 well dish; for Percent Inhibition at a Specified Density (μg/ml): 6: 6 μg/ml, 10,000 SVR cells in 24 well dish

Substance	Percent Inhibition at a Specified Density (μg/ml): 1 [%]	Percent Inhibition at a Specified Density (μg/ml): 3 [%]	Percent Inhibition at a Specified Density (μg/ml): 6 [%]
1,3-Bis(4-biphenyl)propenone	19.2	0.0	0.0
1-(4-Biphenyl)-3-phenylpropenone	10.4	34.7	0.0
3-(4-Biphenyl)-1-phenylpropenone	24.9	12.9	41.4
